# Where two headings read alike, the source gives them in different places.
# Protein sequences, listed by entry. Tags and fused reporters are not part of them. Chains listed by the source or under a name are the forms on record and can include a tag or linker.
# UniProt P36544, with tags, fused parts or gaps G175K: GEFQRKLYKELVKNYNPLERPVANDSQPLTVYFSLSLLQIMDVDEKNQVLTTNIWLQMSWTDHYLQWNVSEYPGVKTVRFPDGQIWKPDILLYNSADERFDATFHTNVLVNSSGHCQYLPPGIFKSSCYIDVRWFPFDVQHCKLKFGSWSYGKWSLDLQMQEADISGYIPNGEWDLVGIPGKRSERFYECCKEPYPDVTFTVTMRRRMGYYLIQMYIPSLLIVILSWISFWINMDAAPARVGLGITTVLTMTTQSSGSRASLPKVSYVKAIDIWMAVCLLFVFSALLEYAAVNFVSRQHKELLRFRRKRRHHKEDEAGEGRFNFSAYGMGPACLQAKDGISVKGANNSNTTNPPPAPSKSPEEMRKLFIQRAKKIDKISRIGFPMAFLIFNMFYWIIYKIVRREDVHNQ
# UniProt P36544, with tags, fused parts or gaps Q79G/G175K: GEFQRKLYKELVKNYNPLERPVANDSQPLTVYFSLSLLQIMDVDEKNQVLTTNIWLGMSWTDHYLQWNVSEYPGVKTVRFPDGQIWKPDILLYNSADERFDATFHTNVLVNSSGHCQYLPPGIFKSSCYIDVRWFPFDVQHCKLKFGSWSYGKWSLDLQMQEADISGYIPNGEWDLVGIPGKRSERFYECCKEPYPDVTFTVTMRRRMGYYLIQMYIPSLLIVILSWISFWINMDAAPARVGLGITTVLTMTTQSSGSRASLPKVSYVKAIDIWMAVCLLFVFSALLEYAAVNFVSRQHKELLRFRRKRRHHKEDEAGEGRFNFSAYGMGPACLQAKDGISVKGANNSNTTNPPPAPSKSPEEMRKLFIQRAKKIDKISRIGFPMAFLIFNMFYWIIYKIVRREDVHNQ
# UniProt P36544, with tags, fused parts or gaps L131A limits assumed: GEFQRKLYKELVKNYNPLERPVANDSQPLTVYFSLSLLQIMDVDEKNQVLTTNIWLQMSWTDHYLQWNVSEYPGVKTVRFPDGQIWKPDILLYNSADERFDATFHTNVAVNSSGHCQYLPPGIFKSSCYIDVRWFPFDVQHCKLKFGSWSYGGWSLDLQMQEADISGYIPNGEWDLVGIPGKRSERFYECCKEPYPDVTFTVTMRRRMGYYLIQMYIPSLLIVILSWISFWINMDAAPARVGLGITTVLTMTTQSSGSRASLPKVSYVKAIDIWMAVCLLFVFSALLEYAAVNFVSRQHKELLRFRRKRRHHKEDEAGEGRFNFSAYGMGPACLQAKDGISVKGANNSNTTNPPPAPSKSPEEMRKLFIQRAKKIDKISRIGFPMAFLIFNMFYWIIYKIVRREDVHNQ
# UniProt P36544, with tags, fused parts or gaps Y115F/G175V limits assumed: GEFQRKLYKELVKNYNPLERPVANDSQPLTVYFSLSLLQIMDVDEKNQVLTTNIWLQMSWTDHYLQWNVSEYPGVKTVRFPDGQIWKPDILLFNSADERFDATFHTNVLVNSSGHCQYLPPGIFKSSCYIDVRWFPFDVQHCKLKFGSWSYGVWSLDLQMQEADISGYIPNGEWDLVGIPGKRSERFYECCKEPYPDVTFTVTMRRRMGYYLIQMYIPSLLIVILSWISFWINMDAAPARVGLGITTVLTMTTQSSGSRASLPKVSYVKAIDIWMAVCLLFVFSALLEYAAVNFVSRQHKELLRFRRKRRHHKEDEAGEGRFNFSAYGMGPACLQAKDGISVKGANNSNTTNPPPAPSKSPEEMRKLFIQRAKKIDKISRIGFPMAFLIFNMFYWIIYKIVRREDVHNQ
# UniProt P36544, with tags, fused parts or gaps Y115F/L131M: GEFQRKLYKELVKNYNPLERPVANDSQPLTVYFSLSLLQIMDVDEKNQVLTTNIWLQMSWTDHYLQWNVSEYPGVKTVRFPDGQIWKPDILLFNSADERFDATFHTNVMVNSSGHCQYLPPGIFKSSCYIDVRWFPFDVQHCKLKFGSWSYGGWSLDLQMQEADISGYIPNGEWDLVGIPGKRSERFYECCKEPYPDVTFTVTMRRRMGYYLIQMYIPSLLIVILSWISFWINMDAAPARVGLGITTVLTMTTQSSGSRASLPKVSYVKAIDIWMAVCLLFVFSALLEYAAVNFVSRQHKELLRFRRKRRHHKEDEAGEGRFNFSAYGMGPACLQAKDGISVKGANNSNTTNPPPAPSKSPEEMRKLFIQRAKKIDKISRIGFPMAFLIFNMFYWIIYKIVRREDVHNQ
# UniProt P36544, with tags, fused parts or gaps L131N: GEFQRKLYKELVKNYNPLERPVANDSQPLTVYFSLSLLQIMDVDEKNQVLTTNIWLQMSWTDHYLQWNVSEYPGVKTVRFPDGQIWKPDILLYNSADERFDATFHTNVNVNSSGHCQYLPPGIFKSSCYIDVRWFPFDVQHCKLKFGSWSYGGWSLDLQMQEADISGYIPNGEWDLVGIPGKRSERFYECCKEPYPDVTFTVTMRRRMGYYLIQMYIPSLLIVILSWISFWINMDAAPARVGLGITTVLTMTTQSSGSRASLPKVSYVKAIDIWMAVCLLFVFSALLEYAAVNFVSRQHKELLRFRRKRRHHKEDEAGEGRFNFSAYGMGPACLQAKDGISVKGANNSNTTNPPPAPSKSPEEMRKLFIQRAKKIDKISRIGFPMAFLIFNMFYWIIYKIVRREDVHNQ
# UniProt P36544, with tags, fused parts or gaps Q79S: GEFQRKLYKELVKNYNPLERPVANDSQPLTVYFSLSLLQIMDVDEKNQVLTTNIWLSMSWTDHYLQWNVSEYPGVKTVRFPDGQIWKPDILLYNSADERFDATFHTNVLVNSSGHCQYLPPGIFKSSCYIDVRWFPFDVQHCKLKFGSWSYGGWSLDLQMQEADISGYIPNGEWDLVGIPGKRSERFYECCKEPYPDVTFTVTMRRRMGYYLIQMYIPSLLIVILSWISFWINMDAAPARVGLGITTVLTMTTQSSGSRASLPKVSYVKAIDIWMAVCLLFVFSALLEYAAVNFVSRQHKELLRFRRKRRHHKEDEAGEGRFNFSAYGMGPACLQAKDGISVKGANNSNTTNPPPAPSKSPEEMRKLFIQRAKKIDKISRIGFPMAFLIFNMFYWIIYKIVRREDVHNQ
# UniProt P36544, with tags, fused parts or gaps L131Q limits assumed: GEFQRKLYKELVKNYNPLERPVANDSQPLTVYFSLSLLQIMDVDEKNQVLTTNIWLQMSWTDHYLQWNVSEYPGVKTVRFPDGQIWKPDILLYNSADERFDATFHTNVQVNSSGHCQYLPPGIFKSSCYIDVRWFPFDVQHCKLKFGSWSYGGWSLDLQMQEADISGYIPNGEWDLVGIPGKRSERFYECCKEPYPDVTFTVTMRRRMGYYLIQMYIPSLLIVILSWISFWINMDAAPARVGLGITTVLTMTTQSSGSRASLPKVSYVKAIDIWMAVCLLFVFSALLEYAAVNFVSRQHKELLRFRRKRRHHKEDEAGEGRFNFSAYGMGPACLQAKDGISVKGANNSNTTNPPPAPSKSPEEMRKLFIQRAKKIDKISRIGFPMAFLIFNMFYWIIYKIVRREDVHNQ
# UniProt P36544, with tags, fused parts or gaps W77F/Q79G/G175K: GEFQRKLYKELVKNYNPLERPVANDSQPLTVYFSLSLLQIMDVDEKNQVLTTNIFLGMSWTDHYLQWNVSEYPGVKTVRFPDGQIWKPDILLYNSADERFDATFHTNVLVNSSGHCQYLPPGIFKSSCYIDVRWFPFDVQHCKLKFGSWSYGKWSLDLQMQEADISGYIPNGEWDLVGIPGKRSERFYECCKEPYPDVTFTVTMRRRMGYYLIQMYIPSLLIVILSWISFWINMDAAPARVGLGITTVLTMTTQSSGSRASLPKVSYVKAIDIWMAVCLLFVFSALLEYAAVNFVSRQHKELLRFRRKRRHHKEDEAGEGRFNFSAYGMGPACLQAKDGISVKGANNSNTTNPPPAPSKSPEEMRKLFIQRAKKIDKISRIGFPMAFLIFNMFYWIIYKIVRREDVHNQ
# UniProt P36544, with tags, fused parts or gaps Y115F/G175S limits assumed: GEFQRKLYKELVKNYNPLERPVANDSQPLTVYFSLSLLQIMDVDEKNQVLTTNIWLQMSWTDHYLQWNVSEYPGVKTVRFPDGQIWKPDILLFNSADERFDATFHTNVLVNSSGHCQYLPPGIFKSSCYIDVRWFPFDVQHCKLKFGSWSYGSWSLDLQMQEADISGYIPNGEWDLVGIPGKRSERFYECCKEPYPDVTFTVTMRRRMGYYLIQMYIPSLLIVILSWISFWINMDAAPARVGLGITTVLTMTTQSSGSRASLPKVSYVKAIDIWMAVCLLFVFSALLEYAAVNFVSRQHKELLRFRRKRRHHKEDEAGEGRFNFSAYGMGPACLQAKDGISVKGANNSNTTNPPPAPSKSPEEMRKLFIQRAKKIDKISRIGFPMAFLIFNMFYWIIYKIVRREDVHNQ
# UniProt P36544, with tags, fused parts or gaps, stated change not applied: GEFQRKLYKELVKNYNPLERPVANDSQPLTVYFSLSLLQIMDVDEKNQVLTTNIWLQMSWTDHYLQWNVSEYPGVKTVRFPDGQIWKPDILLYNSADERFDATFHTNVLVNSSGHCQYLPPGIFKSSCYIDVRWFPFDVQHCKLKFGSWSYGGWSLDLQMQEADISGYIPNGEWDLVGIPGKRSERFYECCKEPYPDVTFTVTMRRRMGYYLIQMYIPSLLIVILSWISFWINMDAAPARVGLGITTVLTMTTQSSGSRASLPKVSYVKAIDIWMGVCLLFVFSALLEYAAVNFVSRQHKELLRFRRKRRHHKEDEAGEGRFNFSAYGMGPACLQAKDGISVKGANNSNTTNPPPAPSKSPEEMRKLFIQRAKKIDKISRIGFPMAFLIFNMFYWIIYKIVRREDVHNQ
# UniProt P36544, with tags, fused parts or gaps Y115F/G175R limits assumed: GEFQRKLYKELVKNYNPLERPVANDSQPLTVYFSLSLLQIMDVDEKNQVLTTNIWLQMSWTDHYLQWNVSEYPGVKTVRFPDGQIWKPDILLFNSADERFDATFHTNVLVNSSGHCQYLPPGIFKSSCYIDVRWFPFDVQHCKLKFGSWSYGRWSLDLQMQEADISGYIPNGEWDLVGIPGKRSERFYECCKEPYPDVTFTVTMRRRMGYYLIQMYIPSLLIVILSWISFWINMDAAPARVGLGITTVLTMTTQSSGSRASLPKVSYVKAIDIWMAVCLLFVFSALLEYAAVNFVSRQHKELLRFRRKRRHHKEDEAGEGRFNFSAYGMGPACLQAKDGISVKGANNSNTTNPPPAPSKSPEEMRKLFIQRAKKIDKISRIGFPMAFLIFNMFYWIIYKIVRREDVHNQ
# UniProt P36544, with tags, fused parts or gaps G175K/Y210F: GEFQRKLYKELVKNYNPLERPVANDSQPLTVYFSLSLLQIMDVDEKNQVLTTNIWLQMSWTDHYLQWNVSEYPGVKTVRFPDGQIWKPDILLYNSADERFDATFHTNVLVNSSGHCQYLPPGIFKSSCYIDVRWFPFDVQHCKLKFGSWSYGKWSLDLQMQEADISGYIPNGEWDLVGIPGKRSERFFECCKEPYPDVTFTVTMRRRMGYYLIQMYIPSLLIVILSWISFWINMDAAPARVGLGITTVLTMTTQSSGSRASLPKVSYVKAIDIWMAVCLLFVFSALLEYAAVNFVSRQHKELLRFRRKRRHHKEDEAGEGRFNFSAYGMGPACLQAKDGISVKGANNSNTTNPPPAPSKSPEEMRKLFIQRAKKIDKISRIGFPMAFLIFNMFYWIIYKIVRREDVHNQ
# UniProt P36544, with tags, fused parts or gaps Q79G/Y115F/G175K limits assumed: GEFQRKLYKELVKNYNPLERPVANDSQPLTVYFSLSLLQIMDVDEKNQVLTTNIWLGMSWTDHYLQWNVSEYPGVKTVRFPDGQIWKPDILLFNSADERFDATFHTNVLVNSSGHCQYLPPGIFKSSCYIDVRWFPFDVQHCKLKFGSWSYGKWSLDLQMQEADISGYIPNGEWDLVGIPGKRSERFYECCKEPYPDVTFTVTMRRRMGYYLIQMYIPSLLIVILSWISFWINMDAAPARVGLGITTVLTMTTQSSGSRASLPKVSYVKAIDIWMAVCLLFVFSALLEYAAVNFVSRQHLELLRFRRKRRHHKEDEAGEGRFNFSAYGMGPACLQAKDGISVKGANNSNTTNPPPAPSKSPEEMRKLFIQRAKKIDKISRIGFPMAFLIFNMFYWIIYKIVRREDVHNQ
# UniProt P36544, with tags, fused parts or gaps Q79G/Y115F/G175K/Y210F limits assumed: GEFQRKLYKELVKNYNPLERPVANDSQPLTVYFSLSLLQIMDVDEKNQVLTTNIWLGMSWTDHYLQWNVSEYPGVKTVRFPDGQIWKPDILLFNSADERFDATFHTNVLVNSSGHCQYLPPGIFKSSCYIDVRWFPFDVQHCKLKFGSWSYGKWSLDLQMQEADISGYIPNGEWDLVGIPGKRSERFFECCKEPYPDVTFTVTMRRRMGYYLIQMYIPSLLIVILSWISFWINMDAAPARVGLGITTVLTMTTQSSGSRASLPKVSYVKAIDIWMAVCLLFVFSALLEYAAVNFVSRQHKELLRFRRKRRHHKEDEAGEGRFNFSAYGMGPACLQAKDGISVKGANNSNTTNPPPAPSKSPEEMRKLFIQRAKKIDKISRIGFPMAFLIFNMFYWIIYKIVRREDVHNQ
# UniProt P36544, with tags, fused parts or gaps Y115F/G175K: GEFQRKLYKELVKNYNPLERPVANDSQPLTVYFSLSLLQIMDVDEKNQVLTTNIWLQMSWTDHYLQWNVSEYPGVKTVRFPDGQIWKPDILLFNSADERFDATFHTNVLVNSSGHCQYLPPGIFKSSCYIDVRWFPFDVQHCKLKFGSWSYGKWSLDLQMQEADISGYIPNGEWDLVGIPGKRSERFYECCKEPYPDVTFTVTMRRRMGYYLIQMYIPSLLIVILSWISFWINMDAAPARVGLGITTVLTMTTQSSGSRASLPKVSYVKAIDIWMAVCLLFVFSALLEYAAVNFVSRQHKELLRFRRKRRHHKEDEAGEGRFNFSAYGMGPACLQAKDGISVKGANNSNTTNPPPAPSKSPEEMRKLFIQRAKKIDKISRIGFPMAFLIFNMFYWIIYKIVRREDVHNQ
# What was measured:
# [1] = target: T1, α7GlyR G175K (Homo sapiens, UniProt P36544, G175K); assay: Agonist potency at chimeric channel; type: cell-based; details: Table 5
# T1 construct: expressed in transfected cells
# [2] = target: T2, α7GlyR Q79G G175K (Homo sapiens, UniProt P36544, G175K/Q79G); assay: Agonist potency at chimeric channel; type: cell-based; details: Table 5
# T2 construct: expressed in transfected cells
# [3] = target: T3, α7^L131A-GlyR (Homo sapiens, UniProt P36544, L131A); type: cell-based; details: α7GlyR L131A; read-out: Agonist potency
# T3 construct: expressed in transfected cells
# [4] = target: T4, α7GlyR Y115F G175V (Homo sapiens, UniProt P36544, G175V/Y115F); assay: Agonist potency at chimeric channel; type: cell-based; details: Table 8
# T4 construct: expressed in transfected cells
# [5] = target: T5, α7GlyR Y115F L131M (Homo sapiens, UniProt P36544, L131M/Y115F); type: cell-based; details: read-out: Agonist potency
# T5 construct: expressed in transfected cells
# [6] = target: T6, α7^L131N-GlyR (Homo sapiens, UniProt P36544, L131N); type: cell-based; details: α7GlyR L131N; read-out: Agonist potency
# T6 construct: expressed in transfected cells
# [7] = target: T7, α7^Q79S-GlyR (Homo sapiens, UniProt P36544, Q79S); type: cell-based; details: HEK cells; Table 2; read-out: Mean EC50 and SEM in parentheses
# T7 construct: expressed in transfected cells; host or cells: HEK cells
# [8] = target: T8, α7^L131Q-GlyR (Homo sapiens, UniProt P36544, L131Q); type: cell-based; details: α7GlyR L131Q; read-out: Agonist potency
# T8 construct: expressed in transfected cells
# [9] = target: T9, α7GlyR W77F Q79G G175K (Homo sapiens, UniProt P36544, G175K/Q79G/W77F); assay: Agonist potency at chimeric channel; type: cell-based; details: Table 5
# T9 construct: expressed in transfected cells
# [10] = target: T10, α7GlyR Y115F G175S (Homo sapiens, UniProt P36544, G175S/Y115F); assay: Agonist potency at chimeric channel; type: cell-based; details: Table 8
# T10 construct: expressed in transfected cells
# [11] = target: T11, α7-GlyR^A298G (Homo sapiens, UniProt P36544, A298G); type: cell-based; details: HEK cells; Table 2; read-out: Mean EC50 and SEM in parentheses
# T11 construct: expressed in transfected cells; host or cells: HEK cells
# [12] = target: T12, α7GlyR Y115F G175R (Homo sapiens, UniProt P36544, G175R/Y115F); assay: Agonist potency at chimeric channel; type: cell-based; details: Table 8
# T12 construct: expressed in transfected cells
# [13] = target: T13, α7GlyR G175K Y210F (Homo sapiens, UniProt P36544, G175K/Y210F); assay: Agonist potency at chimeric channel; type: cell-based; details: Table 5
# T13 construct: expressed in transfected cells
# [14] = target: T14, α7GlyR Q79G Y115F G175K K322L (Homo sapiens, UniProt P36544, G175K/Q79G/Y115F); assay: Agonist potency at chimeric channel; type: cell-based; details: Table 5
# T14 construct: expressed in transfected cells
# [15] = target: T15, α7GlyR Q79G Y115F G175K Y210F (Homo sapiens, UniProt P36544, G175K/Q79G/Y115F/Y210F); assay: Agonist potency at chimeric channel; type: cell-based; details: Table 5
# T15 construct: expressed in transfected cells
# [16] = target: T16, α7GlyR Y115F G175K (Homo sapiens, UniProt P36544, G175K/Y115F); assay: Agonist potency at chimeric channel; type: cell-based; details: Table 5
# T16 construct: expressed in transfected cells
# [17] = target: T17, α7GlyR Q79G G175K Y115F R27D E41R (Homo sapiens, UniProt P36544, E41R/G175K/Q79G/R27D/Y115F); assay: cell-based
# T17 construct: expressed in transfected cells
# [18] = target: T18, α7^Q79G-5HT3 (Homo sapiens, UniProt P36544, M226I/Q79G/T225I); type: cell-based, human α7 nAChR LBD, murine 5HT3 IPD; details: HEK cells; Table 1
# T18 construct: expressed in transfected cells; host or cells: HEK cells
# [19] = target: T19, α7^Q79A-GlyR (Homo sapiens, UniProt P36544, Q79A); type: cell-based; details: HEK cells; Table 2; read-out: Mean EC50 and SEM in parentheses
# T19 construct: expressed in transfected cells; host or cells: HEK cells
# [20] = target: T20, α7^L131F-GlyR (Homo sapiens, UniProt P36544, L131F); type: cell-based; details: α7GlyR L131F; read-out: Agonist potency
# T20 construct: expressed in transfected cells
# [21] = target: T21, α7-5HT3 (Homo sapiens, UniProt P36544, M226I/T225I); details: read-out: Mean EC50; HEK cells; Table 1
# [22] = target: T21, α7-5HT3
# [23] = target: T22, α7GlyR W77F G175K Y210F (Homo sapiens, UniProt P36544, G175K/W77F/Y210F); assay: Agonist potency at chimeric channel; type: cell-based; details: Table 5
# T22 construct: expressed in transfected cells
# [24] = target: T23, α7^L131M-GlyR (Homo sapiens, UniProt P36544, L131M); type: cell-based; details: α7GlyR L131M; read-out: Agonist potency
# T23 construct: expressed in transfected cells
# [25] = target: T24, α7GlyR Y115F G175F (Homo sapiens, UniProt P36544, G175F/Y115F); assay: Agonist potency at chimeric channel; type: cell-based; details: Table 8
# T24 construct: expressed in transfected cells
# [26] = target: T25, α7GlyR Y115F G175A (Homo sapiens, UniProt P36544, G175A/Y115F); assay: Agonist potency at chimeric channel; type: cell-based; details: Table 8
# T25 construct: expressed in transfected cells
# [27] = target: T26, α7GlyR Y115F G175K L141F (Homo sapiens, UniProt P36544, G175K/L141F/Y115F); assay: Agonist potency at chimeric channel; type: cell-based; details: Table 5
# T26 construct: expressed in transfected cells
# [28] = target: T27, α7GlyR W77F Q79G Y115F G175K (Homo sapiens, UniProt P36544, G175K/Q79G/W77F/Y115F); assay: Agonist potency at chimeric channel; type: cell-based; details: Table 5
# T27 construct: expressed in transfected cells
# [29] = target: T28, α7GlyR Q79G G175K Y115F (Homo sapiens, UniProt P36544, G175K/Q79G/Y115F); assay: Agonist potency at chimeric channel; type: cell-based; details: Table 5
# T28 construct: expressed in transfected cells
# [30] = target: T29, α7GlyR Y115F G175M (Homo sapiens, UniProt P36544, G175M/Y115F); assay: Agonist potency at chimeric channel; type: cell-based; details: Table 8
# T29 construct: expressed in transfected cells
# [31] = target: T30, α7GlyR W77F G175K (Homo sapiens, UniProt P36544, G175K/W77F); assay: Agonist potency at chimeric channel; type: cell-based; details: Table 5
# T30 construct: expressed in transfected cells
smiles,measurement,setting,value
c1cnc2cc3c(cc2n1)[C@@H]1CNC[C@H]3C1 [Varenicline],EC50,[1],56 nM
same,EC50,[2],420 nM
same,EC50,[3],82 nM
same,EC50,[4],4600 nM
same,EC50,[5],> 100000 nM
same,EC50,[6],69 nM
same,EC50,[7],280 nM
same,EC50,[8],720 nM
same,EC50,[9],3300 nM
same,EC50,[10],9700 nM
same,EC50,[11],250 nM
same,EC50,[12],7600 nM
same,EC50,[13],4300 nM
same,EC50,[14],> 30000 nM
same,EC50,[15],> 30000 nM
same,EC50,[16],5000 nM
same,EC50,[17],4900 nM
same,EC50,[18],910 nM
same,EC50,[19],480 nM
same,EC50,[20],2600 nM
same,EC50,[21],920 nM
same,EC50,[22],920 nM
same,EC50,[23],> 9000 nM
same,EC50,[24],530 nM
same,EC50,[25],13600 nM
same,EC50,[26],5900 nM
same,EC50,[27],> 8100 nM
same,EC50,[28],> 10000 nM
same,EC50,[29],> 10000 nM
same,EC50,[30],14100 nM
same,EC50,[31],570 nM
